This assay addresses A (H1N1)pdm09 neuraminidase (NA) (Influenza A virus, UniProt C3W5S3). In kind it is biochemical. The note with it: read-out: IC50 Mean ± SD.

In general, IC50 refers to the concentration that inhibits the measured activity by half. On to `CC(=O)N[C@H]1[C@H]([C@H](O)[C@H](O)CO)OC(C(=O)O)=C[C@@H]1N=C(N)N` [Zanamivir, zanamivir], for which the IC50 worked out at 0.18 ± 0.06 nM.

The values are drawn from PMC12621569 (Antiviral research, 2025).
